{
  "source": "PubChem BioAssay AID504444",
  "about": "(National Center for Advancing Translational Sciences (NCATS), 2011)",
  "note": "Where “and” joins values, the source holds several entries; their conditions need not be identical. Equal entries are not always repeated. The list shows a part of the results, in another mix than the full data. Some results for these compounds are left out of this collection, so the calls shown say nothing about other tests. Inconclusive results are not listed. Calls of active or inactive are those of the source. Calls follow the shape of the dose curve; as a rule, active = well fitted inhibition curve with a large enough effect; inconclusive = small, poorly fitted or top-dose-only effect, or effect the other way; inactive = flat fitted curve, though single readings scatter. % is scaled to controls: 0 for no effect and ±100 for the full control effect.",
  "data": [
    {"assay": "Nrf2 qHTS screen for inhibitors; also: nearly all actives have a fitted effect of over 60% in size", "conditions": "A549 ARE-Fluc reporter, luciferase luminescence, 18-24 h; at 46 µM (top of the series)", "values": [
      {"smiles": "O=C(OC1CN2CCC1CC2)C(CO)(c1ccccc1)c1ccccc1", "note": "(stereo not drawn)", "activity change, negative = inhibition": "inactive: -4.1%"},
      {"smiles": "COc1cccc(C(=O)NCC2(N3CCOCC3)CCCCC2)c1", "activity change, negative = inhibition": "inactive: 13.3%"},
      {"smiles": "CC(C)COc1ccc(C(=O)NCC2(N(C)C)CCCCC2)cc1", "activity change, negative = inhibition": "inactive: 6.32%"},
      {"smiles": "COc1ccc(Br)c(C(=O)NCC2(N3CCCCC3)CCCCC2)c1", "activity change, negative = inhibition": "inactive: -5.52%"},
      {"smiles": "Cc1cccc(C(=O)NCC2(N(C)C)CCCCC2)c1", "activity change, negative = inhibition": "inactive: 2.79%"},
      {"smiles": "COc1cc(C(=O)NCC2(N(C)C)CCCCC2)cc(OC)c1OC", "activity change, negative = inhibition": "inactive: 18.5%"},
      {"smiles": "O=C(OCCN1CCCC1)C(O)(c1ccccc1)c1ccccc1", "activity change, negative = inhibition": "inactive: -0.283%"},
      {"smiles": "CC(C)Oc1ccc(C(=O)NCC2(N(C)C)CCCCC2)cc1", "activity change, negative = inhibition": "inactive: 7.68% and inactive: -5.36%"},
      {"smiles": "COc1cc(C(=O)NCC2(N(C)C)CCCCC2)c([N+](=O)[O-])cc1OC", "activity change, negative = inhibition": "inactive: 0.564%"},
      {"smiles": "COc1ccc(C(=O)NCC2(N(C)C)CCCCC2)cc1Cl", "activity change, negative = inhibition": "inactive: 11.5%"},
      {"smiles": "COc1ccc(Cl)cc1C(=O)NCC1(N(C)C)CCCCC1", "activity change, negative = inhibition": "inactive: 0.576%"},
      {"smiles": "COc1cccc(C(=O)NCC2(N3CCCCC3)CCCCC2)c1", "activity change, negative = inhibition": "inactive: 3.05%"},
      {"smiles": "O=C(NCC1(N2CCCCC2)CCCCC1)c1cccc(Cl)c1", "activity change, negative = inhibition": "inactive: -1.78%"},
      {"smiles": "CN(C)C1CCCC1OC(=O)C(O)(c1ccccc1)c1ccccc1", "note": "(stereo not drawn)", "activity change, negative = inhibition": "inactive: 7.6%"},
      {"smiles": "CN(C)c1ccc(C(=O)NCC2(N(C)C)CCCCC2)cc1", "activity change, negative = inhibition": "inactive: 0.744%"},
      {"smiles": "CN(C)C1(CNC(=O)c2ccccc2[N+](=O)[O-])CCCCC1", "activity change, negative = inhibition": "inactive: 14.6%"},
      {"smiles": "Cc1ccccc1C(=O)NCC1(N2CCCCC2)CCCCC1", "activity change, negative = inhibition": "inactive: 19.3%"},
      {"smiles": "CCCCOc1ccccc1C(=O)NCC1(N(C)C)CCCCC1", "activity change, negative = inhibition": "inactive: -0.461%"},
      {"smiles": "O=C(NCC1(N2CCCCC2)CCCCC1)c1cc(F)c(F)cc1Cl", "activity change, negative = inhibition": "inactive: 2.99%"},
      {"smiles": "C=CCN1CCN(CCOC(=O)C(O)(c2ccccc2)c2ccccc2)CC1", "activity change, negative = inhibition": "inactive: 10.3%"},
      {"smiles": "O=C(NCC1(N2CCCCC2)CCCCC1)c1cccc(Br)c1", "activity change, negative = inhibition": "inactive: -11%"},
      {"smiles": "Cc1cc(C(=O)NCC2(N3CCCCC3)CCCCC2)ccc1[N+](=O)[O-]", "activity change, negative = inhibition": "inactive: 16.1%"},
      {"smiles": "CCN1CCCC(OC(=O)C2(O)c3ccccc3C=Cc3ccccc32)C1", "note": "(stereo not drawn)", "activity change, negative = inhibition": "inactive: 2.17%"},
      {"smiles": "CCOc1cccc(C(=O)NCC2(N(C)C)CCCCC2)c1", "activity change, negative = inhibition": "inactive: 14.2%"},
      {"smiles": "COc1ccc(C(=O)NCC2(N(C)C)CCCCC2)cc1", "activity change, negative = inhibition": "inactive: 10%"},
      {"smiles": "O=C(NCC1(N2CCCCC2)CCCCC1)c1cc([N+](=O)[O-])ccc1Cl", "activity change, negative = inhibition": "inactive: 14.7%"},
      {"smiles": "CN1[C@@H]2CC[C@H]1CC(OC(=O)C(O)(c1ccccc1)c1ccccc1)C2", "note": "(stereo partly drawn)", "activity change, negative = inhibition": "inactive: -8.69%"},
      {"smiles": "CC(C)N1C(=O)CC2(CCN(CCOC(=O)C(O)(c3ccccc3)c3ccccc3)CC2)C1=O", "activity change, negative = inhibition": "inactive: 19.6%"},
      {"smiles": "COc1cc(SC)ccc1C(=O)NCC1(N(C)C)CCCCC1", "activity change, negative = inhibition": "inactive: 22.5%"},
      {"smiles": "CCN(CC)CC(C)C(C)OC(=O)C(O)(c1ccccc1)c1ccccc1", "note": "(stereo not drawn)", "activity change, negative = inhibition": "inactive: 3.54%"},
      {"smiles": "CN(C)C1(CNC(=O)c2cccc(Cl)c2)CCCCC1", "activity change, negative = inhibition": "inactive: 5.35%"},
      {"smiles": "CN(C)C1(CNC(=O)c2ccccc2F)CCCCC1", "activity change, negative = inhibition": "inactive: -0.928%"},
      {"smiles": "Cc1ccc(C(=O)NCC2(N3CCCCC3)CCCCC2)cc1", "activity change, negative = inhibition": "inactive: 9.22%"}
    ]}
  ]
}
